The values that follow are results of earlier work, collected in patent publication US20240066037A1 (priority 2020, published 2024).

The chains behind the UniProt entries cited, without tags or fusion partners. Residues count along the entry.
UniProt P43235, 115-329: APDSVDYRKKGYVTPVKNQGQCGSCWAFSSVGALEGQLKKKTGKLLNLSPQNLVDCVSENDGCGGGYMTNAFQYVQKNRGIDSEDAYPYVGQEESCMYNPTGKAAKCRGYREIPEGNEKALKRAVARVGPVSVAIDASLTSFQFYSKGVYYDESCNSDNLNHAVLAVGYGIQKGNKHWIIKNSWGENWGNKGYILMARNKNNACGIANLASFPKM

The target in the series is Cat K (Homo sapiens, UniProt P43235). To be noted: cited from earlier work.

The structures appear in SMILES notation.

On to `CC(C)C[C@H](NC(=O)c1cc2ccccc2o1)C(=O)N[C@H]1CC[C@@H](C)N(S(=O)(=O)c2ccccn2)CC1=O` [relacatib, N-((2S)-4-methyl-1-(((4S,7R)-7-methyl-3-oxo-1-(pyridin-2-ylsulfonyl)azepan-4-yl)amino)-1-oxopentan-2-yl)benzofuran-2-carboxamide], for which the inhibitory constant (Ki) was 0.04 nM.

A word on the Ki: it is the equilibrium dissociation constant of an inhibitor or competing ligand from its target.
